Measured values published in PubChem BioAssay AID652197 (Broad Institute, 2013).
Only a part is listed here, and it is no random draw. Active and inactive are the calls of the source.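 How the source made its calls: active means mean replicate inhibition of at least 30%, or all replicates individually reaching that 30% level; inactive means mean below 30% and not every replicate reaching it.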

Sequences of proteins named here, by UniProt entry; tags and fusion partners are left off. A change or cut given only in a name is not applied to a line headed by its entry.
UniProt Q9NZ08: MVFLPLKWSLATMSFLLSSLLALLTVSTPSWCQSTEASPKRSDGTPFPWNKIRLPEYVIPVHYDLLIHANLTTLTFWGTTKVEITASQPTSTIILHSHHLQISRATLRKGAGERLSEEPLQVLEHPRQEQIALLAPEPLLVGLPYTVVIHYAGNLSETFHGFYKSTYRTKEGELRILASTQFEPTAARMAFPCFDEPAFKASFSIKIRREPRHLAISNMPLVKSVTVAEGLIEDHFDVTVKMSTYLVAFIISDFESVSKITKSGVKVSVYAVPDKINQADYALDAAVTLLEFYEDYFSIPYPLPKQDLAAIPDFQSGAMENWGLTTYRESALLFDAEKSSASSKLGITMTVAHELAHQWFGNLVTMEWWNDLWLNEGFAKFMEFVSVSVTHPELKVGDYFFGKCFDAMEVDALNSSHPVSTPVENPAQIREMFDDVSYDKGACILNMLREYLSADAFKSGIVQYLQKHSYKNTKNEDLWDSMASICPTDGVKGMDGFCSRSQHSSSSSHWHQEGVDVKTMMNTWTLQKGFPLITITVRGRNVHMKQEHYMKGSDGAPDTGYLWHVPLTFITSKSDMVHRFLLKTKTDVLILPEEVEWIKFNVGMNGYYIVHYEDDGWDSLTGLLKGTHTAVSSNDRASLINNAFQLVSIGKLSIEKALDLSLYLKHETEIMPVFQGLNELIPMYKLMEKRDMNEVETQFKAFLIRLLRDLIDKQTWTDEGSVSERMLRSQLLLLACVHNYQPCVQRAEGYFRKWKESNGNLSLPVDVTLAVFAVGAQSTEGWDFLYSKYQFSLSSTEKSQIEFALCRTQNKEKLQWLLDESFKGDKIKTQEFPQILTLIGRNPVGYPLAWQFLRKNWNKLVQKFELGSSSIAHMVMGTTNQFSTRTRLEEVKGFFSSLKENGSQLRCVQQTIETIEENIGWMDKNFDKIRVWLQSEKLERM

molecular target: Endoplasmic reticulum aminopeptidase 1 (Homo sapiens) (UniProt Q9NZ08); test: inhibition of ERAP1 peptide trimming enzyme – biochemical, single point, plate reader, primary screen (AID 652197); conditions: recombinant ERAP1, Leu-AMC fluorescence, 60 min; at 10.7 µM; hits give high values;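 further: 0% = neutral control wells and 100% = L-leucinethiol positive control wells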

Row | Structure (SMILES) | inhibition
1 | CCCC1OP(=O)(Nc2ccccc2)OCC1CC (configuration not stated) | inactive: -2.43%
2 | CN(C)C1(CNC(=O)c2ccc(S(C)(=O)=O)cc2)CCCCC1 | inactive: 1.9%
3 | Cc1ccc(C(=O)OC2CN3CCC2CC3)cc1 (configuration not stated) | inactive: -1.25%
4 | CC1CCC(C(C)C)C(OP(=O)(Nc2ccccn2)c2ccccc2)C1 (configuration not stated) | inactive: -2.08%
5 | NS(=O)(=O)c1cccc(NC(=O)COC(=O)C(O)(c2ccccc2)c2ccccc2)c1 | inactive: 2.14%
6 | O=[As](O)(c1cccs1)c1cccs1 | inactive: -0.614%
7 | Nc1cccc([As](=O)(O)c2ccccc2)c1 | inactive: 2.02%
8 | Cc1ccc(S(=O)(=O)N(CCCN)CCCc2c(C)nc(N)[nH]c2=O)cc1 | inactive: 7.57%
9 | O=P(Nc1nc2ccccc2s1)(c1ccccc1)c1ccccc1 | inactive: 1.56%
10 | C[C@H]1OP(=O)(Oc2ccccc2)[C@H](O)[C@H](O)[C@H]1N=[N+]=[N-] (some centres not stated) | inactive: 0.225%
11 | Nc1ccc(CCCCOc2ccccc2)cc1 | inactive: 16.6%
12 | COc1ccc(N)c([N+](=O)[O-])c1[N+](=O)[O-] | inactive: -0.48%
13 | CN(C)C1(CNC(=O)c2ccc(Cl)c(S(N)(=O)=O)c2)CCCCC1 | inactive: -4.03%
14 | O=P(Nc1ccccn1)(c1ccc(Br)cc1)c1ccc(Br)cc1 | inactive: 4.73%
15 | C/C(N)=N\P(=O)(OCc1ccccc1)OCc1ccccc1 | inactive: -0.749%
16 | Nc1ccc([As](=O)(O)c2ccc([N+](=O)[O-])cc2)cc1 | inactive: -4.03%
17 | C(Cc1nn[nH]n1)Cc1nn[nH]n1 | inactive: -4.09%
18 | CC(=O)NC(SC(=S)N(C)C)C(Cl)(Cl)Cl (configuration not stated) | inactive: 1.65%
19 | CCc1cc(O)c([N+](=O)[O-])c(C)c1[N+](=O)[O-] | inactive: -3.18%
20 | CC(C)(C)C(=O)NC(Sc1ccccc1)C(Cl)(Cl)Cl (configuration not stated) | inactive: 1.28%
21 | CCOc1ccc(C2=NCC(CBr)S2)cc1 (configuration not stated) | inactive: -2.15%
22 | CC(=O)Nc1ccc([As](=O)(O)O)c(O)c1 | inactive: -4.65%
23 | N#C/C(=C\c1ccc(N(CCBr)CCBr)cc1)C(N)=O | inactive: 4.45%
24 | CC(=O)c1ccc(N2CC2c2ccncc2)cc1 (configuration not stated) | inactive: -0.86%

Row | Structure (SMILES) | inhibition
25 | COC(=O)C1(C)COP(=O)(NCc2ccccc2)OC1 (configuration not stated) | inactive: -1.25%
26 | Cc1ccccc1CN(C)C(=O)COC(=O)C(O)(c1ccccc1)c1ccccc1 | inactive: 1.84%
27 | C[C@@H]1C=CCP(=O)(Oc2ccccc2)O1 (some centres not stated) | inactive: -1.51%
28 | C[C@H]1OP(=O)(Oc2ccccc2)C[C@@H]2O[C@@H]21 (some centres not stated) | inactive: -1.76%
29 | O=P1(N(CCCl)CCCl)OCCC2CCCCN21 (configuration not stated) | inactive: -1.49%
30 | O=C(NC1CCS(=O)(=O)C1)NP(=S)(Oc1ccccc1)Oc1ccccc1 (configuration not stated) | inactive: -2.01%
31 | CCNC(=S)/N=C(\N)N[N+](=O)[O-] | inactive: -3.44%
32 | c1ccc(-c2nn[nH]n2)c(-c2nn[nH]n2)c1 | inactive: -3.44%
33 | Cc1ccc(NP(=O)(Oc2cccc(C)c2)Oc2cccc(C)c2)nc1 | inactive: -1.29%
34 | CC(NC(=O)COC(=O)C(O)(c1ccccc1)c1ccccc1)c1ccccc1 (configuration not stated) | inactive: 1.65%
35 | O=c1c2cc([N+](=O)[O-])ccc2[nH]c2c([N+](=O)[O-])cc([N+](=O)[O-])cc12 | inactive: 3.9%
36 | Cc1ccc(OP(=O)(Nc2ccccn2)Oc2ccc(C)cc2)cc1 | inactive: 14.1%
37 | O=C(OC1CN2CCC1CC2)c1ccccc1 (configuration not stated) | inactive: -1.39%
38 | CN(C(=O)Cc1ccc(Cl)c(Cl)c1)[C@H]1CCCC[C@@H]1N1CCCC1 | inactive: -1.56%
39 | Cc1ccc(NP(=O)(Oc2ccccc2F)Oc2ccccc2F)nc1 | inactive: 13.8%
40 | CCn1c(=O)n(C2CCN(CC3CCCCCCC3)C[C@H]2CO)c2ccccc21 (some centres not stated) | inactive: -10.4%
41 | O=C(O)c1ccccc1[As](=O)(O)O | inactive: -0.508%
42 | CC(=O)Nc1ccc([As](=O)(O)O)cc1 | inactive: -1.34%
43 | CCCC1OP(N)(=O)OCC1CC (configuration not stated) | inactive: -0.285%
44 | CN(C)P(=O)(N(C)C)n1c(Nc2ccccc2)nnc1-c1ccccc1 | inactive: 2.86%
45 | O=P(Nc1nc2ccc(Cl)cc2s1)(c1ccccc1)c1ccccc1 | inactive: 8.96%
46 | CN(C(=O)Cc1ccccc1)C1CC[C@@]2(CCCO2)C[C@@H]1N1CCCC1 (some centres not stated) | inactive: -3.85%
47 | Nc1cccc2ccc([As](=O)(O)O)cc12 | inactive: 3.18%
48 | COc1ccccc1OP(=O)(Nc1ccc(C)cn1)Oc1ccccc1OC | inactive: -6.33%

Row | Structure (SMILES) | inhibition
49 | Cc1ccc(OP(=O)(Nc2nccs2)Oc2ccc(C)cc2)cc1 | inactive: 1.4%
50 | Clc1ccc(Cl)c(NC2=NCC(CBr)S2)c1 (configuration not stated) | inactive: -5.65%
51 | NC(=O)c1cc([N+](=O)[O-])cc([N+](=O)[O-])c1N | inactive: 0.924%
52 | CN(C(=O)Cc1ccc(Cl)c(Cl)c1)[C@H]1CCCC[C@H]1N1CCCC1 | inactive: -2.87%
53 | Cc1ccc(N/C(=N/P(=O)(N2CCOCC2)N2CCOCC2)N2CCOCC2)cc1 | inactive: -0.883%
54 | CC(C)CC(=O)NC(Sc1ccc(Cl)cc1)C(Cl)(Cl)Cl (configuration not stated) | inactive: -1.42%
55 | Nc1cc(N)c2nonc2c1[N+](=O)[O-] | inactive: 1.93%
56 | O=C(NC(Sc1ccncn1)C(Cl)(Cl)Cl)c1ccccc1 (configuration not stated) | inactive: -3.06%
57 | Cc1ccc(NP(=O)(Oc2ccccc2)Oc2ccccc2)nc1 | inactive: -2.94%
58 | O=[N+]([O-])c1cc([N+](=O)[O-])c(CCNc2ccccc2)c([N+](=O)[O-])c1 | inactive: 4.75%
59 | COc1ccc(C2=NCC(CBr)S2)cc1 (configuration not stated) | inactive: -0.377%
60 | CC(C)=N/N=C(\N)N[N+](=O)[O-] | inactive: -0.523%
61 | CC(C)c1nc(Nc2ccccc2)n(P(=O)(N(C)C)N(C)C)n1 | inactive: -2.76%
62 | c1cc(-c2nn[nH]n2)ccc1-c1nn[nH]n1 | inactive: -3.15%
63 | Nc1ccc([As](=O)(O)c2ccc(N)cc2)cc1 | inactive: -2.23%
64 | C[N+]1=C2C=CC=CC=C2SC12C([N+](=O)[O-])=CC([N+](=O)[O-])=C[C-]2[N+](=O)[O-] (configuration not stated) | inactive: 1.5%
65 | CCN(/C(=N/P(=O)(N1CCOCC1)N1CCOCC1)N1CCOCC1)c1ccc(OC)cc1 | inactive: -2.85%
66 | O=C(Nc1cc([As](=O)(O)O)ccc1O)c1ccccc1 | inactive: -1.09%
67 | O=P1(N(CCCl)CCCl)OCCCS1 (configuration not stated) | inactive: 4.71%
68 | O=[N+]([O-])c1cccc(NC2=NCC(CBr)S2)c1 (configuration not stated) | inactive: -0.56%
69 | COC(=O)C1(C)COP(=O)(Nc2ccccc2)OC1 (configuration not stated) | inactive: -0.057%
70 | O=C(O)CNc1ccc([As](=O)(O)O)cc1 | inactive: 0.13%
71 | CC(C)(C)C(=O)NC(Sc1ccncn1)C(Cl)(Cl)Cl (configuration not stated) | inactive: 4.02%
72 | O=[N+]([O-])c1ncn(CCn2ncnc2[N+](=O)[O-])n1 | inactive: -0.447%
